In US12357565B2, “Ocular implant containing a tyrosine kinase inhibitor” (Ocular Therapeutix, Inc., priority 2020, dated 2025):

Conditions: rabbit
[1] = 600 μg axitinib bolus, 1 month, scale 0-5, mean (SD)

CNC(=O)c1ccccc1Sc1ccc2c(/C=C/c3ccccn3)n[nH]c2c1 [axitinib, N-methyl-2-[3-((E)-2-pyridin-2-yl-vinyl)-1H-indazol-6-ylsulfanyl]-benzamide]
IOPs determined weekly (600 μg axitinib bolus): remained within the normal range | Tolerability of intravitreal bolus dosing (600 μg axitinib bolus): generally tolerable | Eyes with minimal retinal disruption with a few macrophages in the photoreceptor layer (600 μg axitinib bolus, 1 month): 1 of 6 | Eyes with minimal retinal vacuolization (600 μg axitinib bolus, 1 month): 4 of 6 | Eyes with minimal to mild chronic subcorneal inflammation (600 μg axitinib bolus, 1 month): 4 of 6 | Gross lesions (600 μg axitinib bolus, 1 month): No gross lesions | Chronic Subcorneal Inflammation score [1]: 0.28 (0.38) | Fibrosis Around the Article score [1]: 0.00 (0.00) | Retinal Vacuolization score [1]: 0.50 (0.46) | Retinal, Scleral, or Episcleral Inflammation score [1]: 0.03 (0.05) | Vitreous Chamber Inflammation score [1]: 0.23 (0.21) | Retinal Disruption score (600 μg axitinib suspension in ProVisc®, intravitreal bolus, 1 month, scale 0-5, mean (SD)): 0.10 (0.11)
